Literature values, collected in publication PMC11747885, “Potent inhibitors of the human RNA ligase Rlig1 highlights its role in RNA integrity maintenance under oxidative cellular stress” (Chemical Science, 2025).

Conditions: DMSO; ref MedChemExpress; cited from earlier work

Substance: Plicamycin
- solubility: ≥ 100 mg/mL and ≥ 92.15 mM

Where “and” joins values, the source holds several entries; their conditions need not be identical. Equal values may be shown once.
